Values quoted from earlier work, collected in patent US6498181B1, “Synergistic tumorcidal response induced by histamine” (Maxim Pharmaceuticals, priority 1999, dated 2002).

Test system: breast cancer
Settings: breast cancer patients, clinical trials; cited from earlier work

Substance: p185^HER-2 antibody: humanized mAb raised against the p185^HER-2 receptor (Genetech)
- overall tumor response: significant improvement in overall tumor response
